# The list is not random: actives were taken first. Their share in the collection is about 16%.
# uPA generation: cell surface uPA generation inhibition; Potency, µM (top dose mostly 38.3 µM), for inactives: top-dose activity change, negative = inhibition, usual class: inhibitors; AID 540303; 330,000 tested, 0.31% active; cell surface uPA generation assay, qHTS; active means well fitted inhibition curve with a large enough effect; inconclusive means small, poorly fitted or top-dose-only effect; inactive means no such curve, though single readings can be large or run the other way; tested in mouse RAW 264.7 cells; further: potency means the concentration at half of the fitted maximal effect; on the % scale 0 is the no-effect control and ±100 the full control effect; nearly all actives have a fitted effect of over 55% in size
# miR-21 reporter: raises the signal of a miR-21 reporter | HeLa miR-21 FLuc reporter, luciferase, 48 h | Potency, µM (highest dose often 38.3 µM), inactives show at the highest dose reporter change, positive = more light | 340,000 tested, under 10 active | AID 2288; active = well fitted rising curve with a large enough effect; inconclusive = small, poorly fitted or top-dose-only effect; inactive = no such curve, though single readings can be large or run the other way;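 note: % of control where 0% means no effect; miR-21 action dims this reporter so a rising signal means less miR-21 action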
#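 HeLa cells endogenously expressing miR-21, stably carrying CMV-driven firefly luciferase with a downstream miR-21 binding site, 2000 cells/well. Titrations up to approximately 40 uM, 48 hours; luciferase luminescence read.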
# TDP1 cell CPT: DT40-hTDP1 cell growth loss with CPT. chicken DT40 Tdp1-/-;hTDP1 cells + 20 nM CPT, ATP luminescence, 48 h. Potency, µM (series often up to 46.2 µM), for the others: at the top dose activity change, negative = growth inhibition, most hits filed as inhibitors. 420,000 tested, 12% active; further: potency means the concentration at half of the fitted maximal effect; on the % scale 0 is the no-effect control and ±100 the full control effect; nearly all actives have a fitted effect of over 55% in size
#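 Cell growth measured by CellTiter-Glo luminescence after a minimum 48 h, 37 C compound exposure with 20 nM CPT in Tdp1-knockout DT40 cells stably expressing hTDP1, seeded 400/well; qHTS titration format.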
# TDP1 cell noCPT: qHTS for Inhibitors of human tyrosyl-DNA phosphodiesterase 1 (TDP1): qHTS in cells in absence of CPT | DT40 Tdp1-/- hTDP1 cells, no CPT, ATP luminescence, 48 h | Potency, µM (titrated, usually from 46.2 µM), inactives show at the top dose activity change, negative = growth inhibition, actives largely listed as inhibitors | 420,000 tested, 15% active; further: potency means the concentration at half of the fitted maximal effect; on the % scale 0 is the no-effect control and ±100 the full control effect; nearly all actives have a fitted effect of over 55% in size
#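 Compound effects on proliferation are scored in DT40 Tdp1-/-;hTDP1 cells in the absence of CPT. ATP levels (CellTiter-Glo luminescence) are recorded after a ≥48 hr, 37 °C incubation.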
# TDP1 inh: inhibitors of human tyrosyl-DNA phosphodiesterase TDP1 | Q9NUW8 | recombinant TDP1, AlphaScreen DNA substrate cleavage | Potency, µM (series often up to 130 µM), for inactives: at the top dose activity change, negative = inhibition, actives largely listed as inhibitors | 350,000 tested, 0.28% active | AID 485290; further: potency means the concentration at half of the fitted maximal effect; on the % scale 0 is the no-effect control and ±100 the full control effect; nearly all actives have a fitted effect of over 40% in size
#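 AlphaScreen read-out: signal falls as enzyme removes the 3' tyrosine-FITC from a 5'-biotinylated DNA oligo (15 nM, 5 min, RT). Enzyme was E. coli-made recombinant Tdp1 at 1 nM, exposed to compound for 15 min beforehand; beads 10 ug/ml, 10 min.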
# * hit, by the source's call; ? = inconclusive; / = not tested or not shown. Unless noted, the call rests on the fitted dose curve; in most records, active means well fitted curve in the direction sought with a large enough effect; inconclusive means small, poorly fitted or top-dose-only effect, or another doubt; inactive means no such curve, though single readings can be large; an effect the other way counts as inactive or inconclusive.
SMILES,uPA generation,miR-21 reporter,TDP1 cell CPT,TDP1 cell noCPT,TDP1 inh
Cc1cc(C)n2nc(-c3sccc3-n3c(C)ccc3C)cc2n1,-6.8%,-29.3%,23.1µM*,16.4µM*,3.1%
Cc1cc(C)n2nc(-c3sccc3-n3cccc3)cc2n1,-0.7%,-10.5%,?,?,5.4%
CCN(CC)CCN(C(=O)c1ccc2c(c1)OCCO2)c1nc2c(Cl)cccc2s1,13.0%,4.5%,18.4µM*,?,8.9%
CN(C)CCN(C(=O)c1cccc(Cl)c1)c1nc2c(Cl)cccc2s1,1.8%,-1.7%,1.9%,?,-3.2%
CCN(CC)CCN(C(=O)c1ccc2c(c1)OCCO2)c1nc2cc(C)cc(C)c2s1,-29.8%,0.1%,14.6µM*,?,8.9%
Nc1ccn([C@@H]2O[C@H](C(=O)N[C@H](COC=O)Cc3ccccc3)[C@@H](O)[C@H]2O)c(=O)n1,/,/,-10.1%,3.2%,/
Cc1cnc(C)c(-c2ccc(F)c3c2OC(CNC(=O)Cc2c(F)cccc2F)C3)n1 (centres undefined),/,/,8.9%,-10.6%,/
NC(=O)c1cc(Sc2ccccc2)nc2ccccc12,-0.3%,/,?,?,/
NC(=O)c1cc2c3ccccc3ccn2c1-c1ccccc1,61.8%,14.6%,0.184µM*,0.206µM*,10.0%
CCOc1ccccc1-c1noc(CCCC(=O)Nc2cccc(C(F)(F)F)c2)n1,/,12.8%,18.4µM*,18.4µM*,2.3%
COc1ccccc1-c1noc(CCC(=O)Nc2cc(C(F)(F)F)ccc2Cl)n1,/,-0.3%,-20.7%,?,9.5%
COc1ccccc1-c1noc(CCCC(=O)Nc2cccc(C(F)(F)F)c2)n1,/,-3.5%,?,18.4µM*,3.8%
Cc1cccc(NC(=O)N2CCN3CCCCC3C2)c1C (centres undefined),/,-2.4%,4.2%,2.7%,5.6%
CCOc1ccc(CCNC(=O)CSc2n[nH]c(-c3ccccc3)n2)cc1OCC,/,11.8%,?,?,2.7%
CC(C)CCNC(=O)C(=O)Nc1ccc2c(c1)N(S(=O)(=O)c1cccs1)CCC2,-11.0%,/,5.17µM*,3.66µM*,/
COCCNC(=O)C(=O)Nc1ccc2c(c1)N(S(=O)(=O)c1cccs1)CCC2,-10.1%,/,1.84µM*,1.46µM*,0.3%
Cc1ccc(NC(=O)c2sc(C)nc2C)c(C)c1,1.0%,-22.4%,-13.9%,1.1%,/
CCCCN(C(=O)C1CC(=O)N(CCc2ccc(OC)c(OC)c2)C1)c1c(N)n(CC(C)C)c(=O)[nH]c1=O (centres undefined),11.9%,/,-3.7%,13.1%,/
COc1ccc(-c2nc3c4ccccc4[nH]c(=O)n3n2)cc1,/,-61.3%,?,?,-1.0%
COc1cc2[nH]c(=O)n3nc(-c4ccccc4)nc3c2cc1OC,5.7%,-13.8%,23.1µM*,20.6µM*,0.0%
CCOc1ccc(NC(=O)COc2nsnc2N2CCOCC2)cc1,10.9%,-2.1%,16.4µM*,13µM*,2.6%
Cc1ccccc1NC(=O)COc1nsnc1N1CCOCC1,-0.1%,-3.0%,-2.0%,-1.0%,1.9%
COC(=O)Oc1nsnc1N1CCOCC1,5.2%,-2.0%,23.1µM*,?,0.0%
O=C(COc1nsnc1N1CCOCC1)N/N=C/c1ccccc1O,-5.0%,11.6%,4.61µM*,2.59µM*,2.6%
O=S(=O)(c1ccc(Cl)cc1)N1CCC(c2nc3ccccc3[nH]2)CC1,-8.9%,20.5%,?,11.6µM*,/
CC(=O)c1ccc(S(=O)(=O)N2CCC(c3nc4ccccc4[nH]3)CC2)cc1,-1.0%,7.0%,?,?,4.1%
COc1ccccc1CNC(=O)CSC1=Nc2ccccc2N=C(c2ccc(F)cc2)C1,/,-2.5%,25.9µM*,?,1.8%
O=C(CSC1=Nc2ccccc2N=C(c2ccc(F)cc2)C1)NCc1ccccc1,/,-6.7%,?,18.4µM*,1.8%
CCOC(=O)C1(C)CCCN1C(=O)c1cc(F)ccc1C (centres undefined),/,/,?,-14.4%,/
O=C(Cn1nnc(-c2ccccc2NC(=O)c2ccco2)n1)Nc1ccccc1,-6.1%,14.8%,-15.8%,?,4.8%

# Fetched by compound from the list above:
SMILES,uPA generation,miR-21 reporter,TDP1 cell CPT,TDP1 cell noCPT,TDP1 inh
NC(=O)c1cc2c3ccccc3ccn2c1-c1ccccc1,61.8%,14.6%,0.184µM*,0.206µM*,10.0%
CCOc1ccc(NC(=O)COc2nsnc2N2CCOCC2)cc1,10.9%,-2.1%,16.4µM*,13µM*,2.6%
CC(=O)c1ccc(S(=O)(=O)N2CCC(c3nc4ccccc4[nH]3)CC2)cc1,-1.0%,7.0%,?,?,4.1%
CC(C)CCNC(=O)C(=O)Nc1ccc2c(c1)N(S(=O)(=O)c1cccs1)CCC2,-11.0%,/,5.17µM*,3.66µM*,/
Cc1cccc(NC(=O)N2CCN3CCCCC3C2)c1C (centres undefined),/,-2.4%,4.2%,2.7%,5.6%
COc1ccccc1-c1noc(CCC(=O)Nc2cc(C(F)(F)F)ccc2Cl)n1,/,-0.3%,-20.7%,?,9.5%
CN(C)CCN(C(=O)c1cccc(Cl)c1)c1nc2c(Cl)cccc2s1,1.8%,-1.7%,1.9%,?,-3.2%

# Additional records.
SMILES,uPA generation,miR-21 reporter,TDP1 cell CPT,TDP1 cell noCPT,TDP1 inh
COC(=O)c1scc(-c2ccc(C)cc2)c1S(=O)(=O)Nc1cc(C)ccc1OC,/,0.3%,?,23.1µM*,3.2%
COC(=O)c1scc(-c2ccc(C)cc2)c1S(=O)(=O)Nc1cc(C)c(Cl)cc1OC,/,-5.7%,4.61µM*,23.1µM*,8.4%
CC1CCN(c2c(NCc3ccc(C(=O)N(C)C4CCCCC4)cc3)c(=O)c2=O)CC1,-13.3%,0.1%,?,-20.8%,/
Cc1cccc(N2CCN(C(=O)c3ccc(CNc4c(N5CCC(C)CC5)c(=O)c4=O)cc3)CC2C)c1 (centres undefined),?,-0.3%,20.6µM*,?,11.0%
CC1CCN(c2c(NCc3ccc(C(=O)N4CCc5ccccc54)cc3)c(=O)c2=O)CC1,2.0%,24.5%,5.17µM*,5.8µM*,5.2%
Cc1ccccc1CN1C(=O)CN(S(C)(=O)=O)CC1(C)C(=O)Nc1ccc2c(c1)OCCO2 (centres undefined),/,/,8.7%,10.6%,/
C[N+](C)(C)CCN(Cc1ccc(Cl)cc1)c1ccccn1,0.7%,8.7%,18.4µM*,16.4µM*,1.0%
CN(C)CCN(Cc1ccc(Cl)cc1)c1ccccn1,-16.9%,-0.6%,?,?,2.9%
COc1ccc(N2C(=O)C3C4C=CC(C4)C3C2=O)c(OC)c1 (centres undefined),/,-1.0%,-4.1%,-6.1%,4.0%
O=C(O)CCCNC(=O)OCc1ccccc1,-1.2%,4.5%,3.2%,5.6%,3.9%
O=C(O)CCCCCNC(=O)OCC1c2ccccc2-c2ccccc21,-7.0%,3.4%,4.11µM*,11.6µM*,/
O=C(/C=C/c1ccc(O)cc1)c1ccccc1,-10.3%,-42.9%,-24.7%,?,8.3%
Cc1ccc2occ(/C=C/C(=O)c3ccccc3O)c(=O)c2c1,-5.2%,-18.5%,18.4µM*,?,3.8%
Cc1cccc(C=CC(=O)c2ccccc2)c1,-7.2%,/,?,23.1µM*,/
Cc1ccc(C(=O)C=Cc2cccc(C)c2)cc1,-5.0%,/,?,18.4µM*,/
Cc1ccc(O)c(C(=O)C=Cc2ccccc2)c1,-9.0%,/,?,20.6µM*,/
COc1ccc(NC(=O)CSc2ccc3nnc(-c4ccccn4)n3n2)cc1,10.5%,-2.1%,-15.7%,-8.8%,4.9%
Cc1ccc(-c2cc(C(=O)Nc3ccc(SC(F)F)cc3)no2)cc1F,/,11.2%,?,-24.0%,8.6%
CCC(c1nnc(SCC(=O)N(C)c2ccccc2)n1Cc1ccccc1)N(C)C (centres undefined),4.6%,/,7.3%,-19.3%,/
O=S1(=O)N[C@@H](Cc2ccccc2)COc2cc(N3CCC[C@@H]3CO)ccc21,/,/,?,16.4µM*,/
